One assay concerns the target IKK alpha/beta (Homo sapiens, UniProt O14920+O15111). In words: Degradation of the IKK-complex in HeLa cells, Western blot with anti-IKK alpha/beta-antibody. The following applies: for level of IKK alpha/beta protein: various concentrations, TNF alpha 20 ng/ml. As for the experimental part:
3×10^6 HeLa cells were incubated with different drugs at increasing concentrations for 1 h, washed twice with PBS and stimulated with 20 ng/ml TNF alpha (Roche). After 7 min the cells were washed twice with ice cold PBS followed by scraping and transferring into a 1.5 ml microcentrifuge tube. (After centrifugation by 2000 rpm for 2 min by 4° C. the PBS supernatant was removed and 200 μl Lyse-buffer (10 mM Hepes, pH 7.9, 0.1% NP40, 300 mM Sucrose, 10 mM KCl, 15 mM MgCl2, 1 mM DTT, 0.5 mM PMSF and antipain, aprotinin, leupeptin each 0.75 μg/ml (Sigma) was added to the pellet. The resuspented pellet was incubated on ice for 5 min and centrifuged at 13000 g for 30s.)
Cytosolic extracts were isolated as described earlier.
30 μL cytosolic extract, approximately extract from 4×10^5 cells, was loaded to a 4-20% polyacrylamid gels (BioRad). After electrophoresis the proteins were transferred to a nitrocellulose membrane using the wet blotting technique. First the membrane was blocked with Roti-Block (Roth) and afterwards incubated with polyclonal antibodies against IKK alpha/beta or NEMO (both Santa Cruz Biotechnology, used at 1:200 dilution). This incubation was followed by the appropriate horseradish peroxidase-conjugated secondary antibody (Dianova) at 1:10000 dilution. Antibody binding was visualized on x-ray film using the Western blot Chemiluminescent Reagent Detection Kit (Santa Cruz).
On the technique in general: In western blotting, separated proteins are transferred to a membrane and probed.

Protein sequences, listed by entry. Tags and fused reporters are not part of them.
UniProt O14920, whole entry: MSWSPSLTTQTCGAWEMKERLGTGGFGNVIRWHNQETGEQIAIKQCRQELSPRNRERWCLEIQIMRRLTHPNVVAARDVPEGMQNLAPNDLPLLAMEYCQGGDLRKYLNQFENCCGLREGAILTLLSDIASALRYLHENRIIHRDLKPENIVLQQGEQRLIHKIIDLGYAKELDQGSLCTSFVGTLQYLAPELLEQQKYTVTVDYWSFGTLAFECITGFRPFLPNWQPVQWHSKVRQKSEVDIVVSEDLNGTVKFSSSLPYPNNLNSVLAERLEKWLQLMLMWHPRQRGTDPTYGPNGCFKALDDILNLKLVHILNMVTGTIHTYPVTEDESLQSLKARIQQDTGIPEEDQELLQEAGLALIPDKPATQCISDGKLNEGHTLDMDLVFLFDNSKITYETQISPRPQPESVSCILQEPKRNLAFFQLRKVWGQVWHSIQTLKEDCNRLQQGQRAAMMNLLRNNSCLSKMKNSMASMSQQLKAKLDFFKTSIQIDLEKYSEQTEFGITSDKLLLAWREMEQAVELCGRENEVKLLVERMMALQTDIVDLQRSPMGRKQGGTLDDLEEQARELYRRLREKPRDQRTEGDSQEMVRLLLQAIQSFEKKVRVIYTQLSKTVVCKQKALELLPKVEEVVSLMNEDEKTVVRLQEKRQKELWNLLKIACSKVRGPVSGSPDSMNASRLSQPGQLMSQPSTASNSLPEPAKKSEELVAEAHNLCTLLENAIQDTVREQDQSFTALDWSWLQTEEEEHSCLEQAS
UniProt O15111, whole entry: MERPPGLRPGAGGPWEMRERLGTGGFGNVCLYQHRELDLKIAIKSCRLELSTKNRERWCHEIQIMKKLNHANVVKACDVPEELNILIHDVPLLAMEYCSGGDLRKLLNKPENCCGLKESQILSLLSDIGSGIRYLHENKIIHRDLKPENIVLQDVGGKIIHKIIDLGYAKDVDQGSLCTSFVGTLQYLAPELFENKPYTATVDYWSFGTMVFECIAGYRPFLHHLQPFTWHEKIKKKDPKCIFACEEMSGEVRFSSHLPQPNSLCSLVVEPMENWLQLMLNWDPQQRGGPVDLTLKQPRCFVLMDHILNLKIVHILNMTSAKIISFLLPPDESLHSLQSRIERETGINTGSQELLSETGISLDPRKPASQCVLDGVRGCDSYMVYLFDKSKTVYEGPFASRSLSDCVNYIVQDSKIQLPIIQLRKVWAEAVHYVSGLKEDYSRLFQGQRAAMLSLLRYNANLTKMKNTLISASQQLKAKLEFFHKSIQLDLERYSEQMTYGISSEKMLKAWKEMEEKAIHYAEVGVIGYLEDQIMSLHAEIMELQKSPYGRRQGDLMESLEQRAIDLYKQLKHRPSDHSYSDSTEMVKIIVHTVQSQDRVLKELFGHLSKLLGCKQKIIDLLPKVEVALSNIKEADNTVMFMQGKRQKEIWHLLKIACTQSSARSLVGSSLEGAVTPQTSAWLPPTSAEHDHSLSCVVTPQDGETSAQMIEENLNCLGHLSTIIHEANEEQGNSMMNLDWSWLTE

The next assay has as its system NF-kappaB. In words: Electrophoretic mobility shift assay (EMSA) for NF-kappaB in LPS stimulated THP-1 monocytic cells. To be noted: THP-1 cells, 100 μM, 1 h, LPS 1 μg/ml. On the procedure:
Electrophoretic Mobility Shift Assay (EMSA): THP-1 monocytic cells (DSM, Braunschweig, Germany) were maintained in suspension in RPMI 1640 (Glutamax-1, low endotoxin) containing 7% fetal calf serum (FCS) (Myoclone super plus, low endotoxin), 100 units/ml penicillin, and […] streptomycin (Life Technologies, Inc., Eggenstein, Germany). For the experiments, the cells were plated at a density of 3×10^6 per well in 6-well culture dishes. Nuclear extracts were prepared by harvesting cells by centrifugation at 1200 rpm for 7 min at 4° C. The cells were resuspended by adding 1 ml ice cold PBS and transferred into a microcentrifuge tube. After centrifugation at 2000 g for 2 min by 4° C. the pellet was lysed in 50 μl buffer A (10 mM Hepes, pH 7.9, 0.1% NP40, 10 mM, 300 mM Sucrose, 10 mM KCl, 15 mM MgCl2, 1 mM DTT, 0.5 mM PMSF and antipain, aprotinin, leupeptin each 0.75 μg/ml (Sigma)). […] The binding of Sp-1 and AP-1 was also analysed by EMSA using specific consensus oligonucleotides (Promega, Heidelberg, Germany) that were labeled with [γ-^32P]ATP (>5,000 Ci/mmol, NEN Life Science Products) and T4 polynucleotide kinase (Boehringer Mannheim). Gels were dried and analysed by autoradiography. […]
A general note: Mobility shift assays separate free from complexed probe on a gel.

The values that follow come from patent US20060194819A1, “Activation specific inhibitors of nf-kb and method of treating inflammatory processes in cardio-vascular diseases” (PROCORDE GMBH, priority 2003, published 2006).

Consider `CCOC(=O)C1=C(C)N=c2sc(=Cc3ccc(-c4cccc(C(=O)O)c4)o3)c(=O)n2C1c1cc(OC)c(OC)cc1Br` (centres unmarked), for which the IKKα/β degradation result on IKK alpha/beta (33 μM and 100 μM) is on record as “obvious only at higher concentrations”. For the same compound, the “IKKα/β decomposition at the highest concentration used” value on IKK alpha/beta (highest concentration used) is on record as “No complete decomposition”. The entries for the “level of IKK alpha/beta protein” value on IKK alpha/beta (listed as COM 73) and at IKK alpha/beta (listed as compound 73) were “concentration-dependently degraded” and “dose dependently reduced”, respectively. For the same compound, in the assay on NF-kappaB, the “reduced NF-kappaB-release” value was found to be 80%.
